Only a part is listed here, and it is no random draw. Some of these compounds have results that are not shown, active ones among them. Active and inactive are the calls of the source. No stated cut-off is given here; in the data, active means inhibition above about 19%; inactive means the rest.

The source of these data is PubChem BioAssay AID651800 (The Scripps Research Institute Molecular Screening Center, 2012).

The experiment relates to T-cell receptor (TCR). Briefly: small molecules blocking TCR binding to CD3 – biochemical, fluorescence, TAMRA-labeled TCR probe, primary screen (AID 651800).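 Further: recombinant mutant TCR 2C K166C tagged with TAMRA read by polarization; 0% = receptor in buffer alone and 100% = receptor with positive control.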 To be noted: at 9.4 µM, active compounds read high.
Turning to `O=C(NCC1(N2CCCCC2)CCCCC1)c1cccc(Br)c1`, the inhibition is inactive: 3.29%. For the compound `Cc1cc(C(=O)NCC2(N3CCCCC3)CCCCC2)ccc1[N+](=O)[O-]`, the inhibition is inactive: -3.01%. In the case of `CCN1CCCC(OC(=O)C2(O)c3ccccc3C=Cc3ccccc32)C1` (stereo unspecified) it was inactive: -6.22%; in that of `COc1ccc(C(=O)NCC2(N(C)C)CCCCC2)cc1`, inactive: 5.49%. In the case of `O=C(NCC1(N2CCCCC2)CCCCC1)c1cc(F)c(F)cc1Cl` it was inactive: 0.03%; in that of `C=CCN1CCN(CCOC(=O)C(O)(c2ccccc2)c2ccccc2)CC1`, inactive: -6.22%. In the case of `CN(C)C1CCCC1OC(=O)C(O)(c1ccccc1)c1ccccc1` (stereo unspecified) it was inactive: 0.29%; in that of `CN(C)c1ccc(C(=O)NCC2(N(C)C)CCCCC2)cc1`, inactive: -0.19%; in that of `Cc1ccccc1C(=O)NCC1(N2CCCCC2)CCCCC1`, inactive: 3.09%. As for `Cc1ccc(C(=O)NCC2(N3CCCCC3)CCCCC2)cc1`, the inhibition is inactive: -6.96%. On to `CC(C)N1C(=O)CC2(CCN(CCOC(=O)C(O)(c3ccccc3)c3ccccc3)CC2)C1=O`, for which the inhibition is inactive: -9.67%. Turning to `COc1cc(SC)ccc1C(=O)NCC1(N(C)C)CCCCC1`, the inhibition is inactive: -4.13%. As for `CCN(CC)CC(C)C(C)OC(=O)C(O)(c1ccccc1)c1ccccc1` (stereo unspecified), the inhibition is inactive: 1.38%. For the compound `CN1[C@@H]2CC[C@H]1CC(OC(=O)C(O)(c1ccccc1)c1ccccc1)C2` (stereo partly specified), the inhibition is inactive: 4.6%. In the case of `O=C(NCC1(N2CCCCC2)CCCCC1)c1cc([N+](=O)[O-])ccc1Cl` it was inactive: 1.32%. In the case of `CN(C)c1cccc(C(=O)NCC2(N(C)C)CCCCC2)c1` it was inactive: 3.97%; in that of `O=C(OCCN1CCCC1)C(O)(c1ccccc1)c1ccccc1`, inactive: 1.96%; in that of `CC(C)Oc1ccc(C(=O)NCC2(N(C)C)CCCCC2)cc1`, inactive: 5.18%. For the compound `COc1ccc(Br)c(C(=O)NCC2(N3CCCCC3)CCCCC2)c1`, the inhibition was inactive: -3.62%. Regarding `C=C(C)C#CC(O)(C(=O)OC1CCN(C)CC1)c1ccccc1` (stereo unspecified), the inhibition is inactive: 5.05%. For `O=C(OC1CN2CCC1CC2)C(CO)(c1ccccc1)c1ccccc1` (stereo unspecified), the inhibition is inactive: 4.85%. In the case of `O=C(NCC1(N2CCCCC2)CCCCC1)c1cccc(Cl)c1` it was inactive: -6.43%; in that of `COc1ccc(Cl)cc1C(=O)NCC1(N(C)C)CCCCC1`, inactive: 0.65%; in that of `COc1cccc(C(=O)NCC2(N3CCCCC3)CCCCC2)c1`, inactive: -0.73%.

As for `COc1cc(C(=O)NCC2(N(C)C)CCCCC2)c([N+](=O)[O-])cc1OC`, the inhibition was inactive: -2.48%. In the case of `CN(C)C1(CNC(=O)c2ccc(Br)cc2)CCCCC1` it was inactive: -8.14%.
